Converted amounts (≈) assume the structure as drawn.
Legend:
[1] = Solubility in 50 mM Tris/HCl buffer at pH 7.4 by turbidimetric method; format: physicochemical
How it was run: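 DMSO stock added stepwise (about 14 additions) to 50 mM Tris/HCl pH 7.4 at room temperature, final DMSO below 5%; precipitation detected as UV absorbance rise at 600–800 nm; solubility limit from bilinear fit of absorbance versus DMSO.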

[2] = Methanol-water partition coefficient, log K by RP-HPLC; format: physicochemical
How it was run: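 Reverse-phase HPLC with water–methanol 40/60 (v/v) mobile phase at 1.0 ml/min; dead time from KI in methanol; retention times in minutes; log k from capacity factor taken as lipophilicity index.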

Adenosine receptor A2a = Adenosine receptor A2a (Homo sapiens, UniProt P29274); test: Displacement of [3H]ZM241385 from human cloned adenosine A2A receptor expressed in human HeLa cells; format: cell-based
Adenosine receptor A3 = Adenosine receptor A3 (Homo sapiens, UniProt P0DMS8); test: Displacement of [3H]NECA from human cloned adenosine A3 receptor expressed in human HeLa cells; format: cell-based
Adenosine receptor A2b = target: T1, Adenosine receptor A2b (Homo sapiens, UniProt P29275); test: Displacement of [3H]DPCPX from human cloned adenosine A2B receptor expressed in HEK293 cells; format: cell-based
T1 sequence (P29275 whole entry): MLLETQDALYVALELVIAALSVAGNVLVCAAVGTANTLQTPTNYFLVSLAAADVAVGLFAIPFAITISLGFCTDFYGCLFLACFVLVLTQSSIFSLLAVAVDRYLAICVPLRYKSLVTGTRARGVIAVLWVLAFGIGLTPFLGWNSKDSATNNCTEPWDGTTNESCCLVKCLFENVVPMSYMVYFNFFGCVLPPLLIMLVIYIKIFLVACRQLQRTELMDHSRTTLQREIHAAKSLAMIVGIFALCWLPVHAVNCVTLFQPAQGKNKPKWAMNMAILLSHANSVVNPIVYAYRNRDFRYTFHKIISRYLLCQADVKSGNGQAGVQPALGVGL

CCCn1c(=O)c2[nH]c(-c3ccc(OCC(=O)N4CCN(Cc5ccccc5)CC4)cc3)c(O)c2n(CCC)c1=O
solubility kinetic [1]: 10 µg/mL (≈ 17.9 µM)
log K [2]: 0.29
Ki (Adenosine receptor A2a): 0.092 µM
Ki (Adenosine receptor A3): 0.891 µM
Ki (Adenosine receptor A2b): 0.0026 µM
